The values that follow come from patent publication US11096924B2, “Combination therapies using immuno-dash inhibitors and PGE2 antagonists” (Trustees of Tufts College, priority 2016, dated 2021).

Data set [1] has as its system THP-1 sgGFP. Nature of the data set: Pyroptosis in THP-1 sgGFP cells. Type of data set: cell-based. To be noted: Homo sapiens.
Data set [2] deals with MV4; 11 Luc-Neo. Nature of the data set: Pyroptosis in MV4;11 Luc-Neo cells. Type of data set: cell-based. Conditions: Homo sapiens.
Data set [3] relates to RAW 264.7 WT cells. As to the kind of experiment: Pyroptosis in RAW 264.7 WT cells. Type of data set: cell-based. Conditions: Mus musculus, RAW264.7.
The test system of data set [4] is RAW 264.7, MV4; 11, THP-1 cells. Nature of the data set: Pyroptosis inducing activity in vitro (Example 7). Type of data set: cell-based. To be noted: bound stated.
For data set [5], the system named is MB49 murine urothelial carcinoma cell line. Nature of the data set: MB49 efficacy studies in tumor bearing mice. Type of data set: in vivo. Conditions: MB49 mouse tumor model, truncated dosing schedules.
Data set [6] relates to macrophages. As to the kind of experiment: Pyroptosis of macrophages in cell culture. To be noted: Macrophage; Example 2 table; unit inferred. In kind it is cell-based.
The conditions of data set [7]: phase I clinical trials in humans; cited from earlier work.

`N[C@H](C(=O)N1CCC[C@H]1B(O)O)C12CC3CC(CC(O)(C3)C1)C2` (relative stereo) [ARI-3102A]: the concentration for half-maximal inhibition (IC50) came out at 376 nM in data set [1], 571 nM in data set [2] and 173 nM in data set [3].
Turning to `N[C@H](C(=O)N1CCC[C@H]1B(O)O)C12CC3CC(CC(Cl)(C3)C1)C2` (relative stereo) [ARI-3102C], the IC50 in data set [1] is 7 nM; in data set [2], 1 nM; in data set [4], below 10 nM; in data set [3], 3 nM.
Consider `CC1([C@H](N)C(=O)N2CCC[C@H]2B(O)O)CCCCC1` (relative stereo) [ARI-4175CH], for which the IC50 in data set [1] is 0.9 nM; in data set [2] it was 0.2 nM; in data set [4], below 10 nM.
Regarding `CC(C)(F)[C@H](N)C(=O)N1CCC[C@H]1B(O)O` (relative stereo) [ARI-4268], in data set [5], the antitumor activity result is recorded as “displays antitumor activity”.
As for `N[C@H](C(=O)N1CCC[C@H]1B(O)O)C12CC3CC(CC(C3)C1)C2` (relative stereo) [ARI-5544, Gly(1-adamantyl)-boroPro], the IC50 is 0.2 nM in data set [1], below 0.1 nM in data set [2], below 10 nM in data set [4] and 2 nM in data set [3].
Take `CC(C)(C)[C@H](N)C(=O)N1CCC[C@H]1B(O)O` [ARI-4175]: the results for the IC50 in data set [4], in data set [6] and in data set [3] were below 10 nM, 14 nM and 14 nM, respectively.
For the compound `CC(C)[C@H](N)C(=O)N1CCC[C@H]1B(O)O` [Val-boroPro, Valine-boroProline], the tolerability result in data set [7] is on record as “appeared to be well tolerated”.
